Experimental data from patent US6352966B1, “Cleansing bars” (Albemarle Corporation, priority 2000, dated 2002).

How the values were obtained:
[1] = Reflectance of cleansing bars; type: physicochemical; details: bar; the higher the reflectance the whiter the bar
Description: (§1) The desirable properties of cleansing bars formed from fully neutralized sodium salts of various alkenyl succinic acids of this invention were determined in a further series of comparative tests. In these tests both the reflectance and the bar hardness were determined. In addition to testing bars of five different fully neutralized succinate salts of this invention, the same properties were measured on four fully compounded commercial soap bars from different well-known soap manufacturers. As can be appreciated, the higher the reflectance the whiter the bar, and the higher the hardness, the more desirable is the bar. In Table 2, the five fully neutralized alkenyl succinic acids are identified in terms of the number of carbon atoms in the alkenyl group. Thus, for example, C6 SAS represents the fully neutralized disodium salt of n-hexenyl succinic acid. As regards reflectance, Commercial Bar B is pink in color, and Commercial Bar C is a coral-orange in color. The other two commercial bars are white.

[2] = Bar hardness of cleansing bars; type: physicochemical; details: the higher the hardness, the more desirable
Description: as §1

In the case of “Disodium Salt of n-Octenyl Succinic Acid [C8 SAS]”, the Reflectance [1] is reported as 92 and the “Bar Hardness” value [2] is reported as 104.

With “fully neutralized disodium salt of n-hexenyl succinic acid [C6 SAS]” the Reflectance [1] was 92 and the “Bar Hardness” value [2] was 88.
